Reference: US11291624B2, “Compositions comprising active botanical ingredients” (CONOPCO, INC., priority 2018, dated 2022)

Tested on: MelaKuits reconstructed human pigmented LSE model
Test: Inhibition of melanin in a living skin-equivalent (LSE) model
Assay type: cell-based
Settings: 5 μM; UVB-exposed pigmented LSE; the lower the better
Description: Details of the test are as follows:
Materials: • MelaKuits®, a reconstructed human pigmented LSE model, derived from 3D culture of normal human epidermal keratinocytes and melanocytes from Asian donors.
The pigmented LSE model was exposed to UVB (50 mJ/cm^2) for seven consecutive days day at periodic intervals of 24 hours to stimulate the synthesis of melanin. The extracts were applied topically on each LSE model on day 4 and day 6 with an interval of 48 hours for refreshing. For comparison, a blank experiment was carried out in which the LSE was neither exposed to UV radiation nor was any extract applied thereon. A control experiment was also carried out in which the LSE model was exposed to UV radiation, but no other treatment was followed.
On day 8, the appearance of each LSE model was assessed by photographing them. Thereafter, all the models subjected to the test were separated from their respective inserts and placed on a white plastic plate with the stratum corneum side facing up. The luminance (L*) value was read using a spectrophotometer CM700 (Konica-Minolta). For each model, the luminance was measured thrice, and the mean value was calculated for comparison.

Substance: Atractylenolide I [AT-1]
- Melanin content as % of control: 94.9 % of control
